Amino acid sequences for entries named in this document (tags omitted).
UniProt P42227, whole entry: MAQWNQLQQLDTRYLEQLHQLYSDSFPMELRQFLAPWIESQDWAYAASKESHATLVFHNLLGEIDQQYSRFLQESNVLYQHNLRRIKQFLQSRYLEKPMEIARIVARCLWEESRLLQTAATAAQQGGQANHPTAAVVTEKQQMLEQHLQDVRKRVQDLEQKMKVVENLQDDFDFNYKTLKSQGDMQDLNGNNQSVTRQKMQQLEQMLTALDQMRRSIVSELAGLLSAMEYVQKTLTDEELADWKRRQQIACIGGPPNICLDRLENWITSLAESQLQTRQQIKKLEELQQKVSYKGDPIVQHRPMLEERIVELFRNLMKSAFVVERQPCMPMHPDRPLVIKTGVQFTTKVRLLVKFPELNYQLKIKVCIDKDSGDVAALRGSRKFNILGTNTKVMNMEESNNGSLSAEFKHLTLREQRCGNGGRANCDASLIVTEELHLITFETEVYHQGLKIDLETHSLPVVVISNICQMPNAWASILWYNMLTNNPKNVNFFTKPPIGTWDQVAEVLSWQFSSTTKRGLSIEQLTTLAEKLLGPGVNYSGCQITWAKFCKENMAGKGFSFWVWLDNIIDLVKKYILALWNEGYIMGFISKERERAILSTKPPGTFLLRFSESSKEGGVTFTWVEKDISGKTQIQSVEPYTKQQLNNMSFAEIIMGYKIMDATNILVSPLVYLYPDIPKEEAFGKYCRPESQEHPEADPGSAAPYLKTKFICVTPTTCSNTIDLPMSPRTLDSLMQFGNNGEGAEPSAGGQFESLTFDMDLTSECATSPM

According to patent US20140086939A1, “COMPOSITIONS AND METHODS FOR DETECTING AND TREATING CANCER” (priority 2011, published 2014):

Target: T1, STAT3 (Mus musculus, UniProt P42227)
T1 construct: from tissue; host or cells: subcutaneous tumors formed by Ikkβf/f or IkkβΔ dih10 cells in C57BL/6 mice
Assay: STAT3 phosphorylation in lysates of dih10 tumors (immunoblot)
Assay type: in vivo
Source text: FIG. 22. ROS-mediated SHP1/2 inhibition in IKKβ-deficient HCCs correlates with STAT3 activation and accelerated tumor growth. (A) Tumors derived from Ikkβ^f/f (f/f) and Ikkβ^Δ (Δ) dih10 cells were collected and lysed. Tumor lysates were immunoprecipitated with an anti-JAK2 antibody and examined for JAK2 tyrosine phosphorylation with PY20 antibody. Tumor lysates were also used for immunoblot analyses with the indicated antibodies. (B) SHP1 and SHP2 were immunoprecipitated from above tumor lysates and their phosphatase activities were measured (n=4; *: p<0.05). (C) Fresh frozen sections of HCCs from transplanted MUP-uPA mice were analyzed for superoxide accumulation by DHE staining. Fluorescence intensity in several fields was quantitated by ImageJ and relative average increases in fluorescent intensity are shown (n=3; *: p<0.01). […] (D) Tumors were collected from BHA treated and untreated mice, lysed and SHP1/2 phosphatase activities were measured. […] (F) Tumor volume was measured weekly (n=5; p<0.01, Δ/ctrl vs. Δ/BHA by one way ANOVA). […]
FIG. 30. […] Tumor volume was measured (n=5; p<0.05, f/f/vehicle vs. f/f/AG490; p<0.01, Δ/vehicle vs. Δ/AG490 by one way ANOVA). (B) After 6 weeks, tumors were removed, lysed and analyzed by immunoblotting with the indicated antibodies. […] Tumor volume was measured (n=5; p<0.05, f/f/vehicle vs. f/f/S3I-201; p<0.01, Δ/vehicle vs. Δ/S3I-201 by one way ANOVA). […]

Cc1ccc(S(=O)(=O)OCC(=O)Nc2ccc(C(=O)O)c(O)c2)cc1 [S3I-201]
STAT3 activity in dih cell tumors: effective inhibition
STAT3 phosphorylation in tumors (S3I-201 5 mg/kg i.p. daily, tumors after 6 weeks): inhibited STAT3 phosphorylation
